# Several values for one entry are separate records, joined by “and”; a condition that tells them apart may be missing. Where a call stands in place of a potency, no number is given. Equal entries are not always repeated. For part of these data: This list holds what a sample rich in hits left over. This is a selection; strong and weak results do not stand in their true shares. Records with an inconclusive call do not appear. A structure can be active in one record and inactive in another. Activity calls are given as the source filed them. Unless noted, calls come from the whole dose curve; as a rule, active = well fitted curve in the direction sought with a large enough effect in the repeat runs; inconclusive = weak or mixed curves; inactive = no such curve, though single readings can be large; an effect the other way counts as inactive or inconclusive.
# Protein sequences, listed by entry. Tags and fused reporters are not part of them. Lines headed by an entry give the natural chain unless they say otherwise; changes in a name come on top.
# UniProt Q92731, whole entry, looked up: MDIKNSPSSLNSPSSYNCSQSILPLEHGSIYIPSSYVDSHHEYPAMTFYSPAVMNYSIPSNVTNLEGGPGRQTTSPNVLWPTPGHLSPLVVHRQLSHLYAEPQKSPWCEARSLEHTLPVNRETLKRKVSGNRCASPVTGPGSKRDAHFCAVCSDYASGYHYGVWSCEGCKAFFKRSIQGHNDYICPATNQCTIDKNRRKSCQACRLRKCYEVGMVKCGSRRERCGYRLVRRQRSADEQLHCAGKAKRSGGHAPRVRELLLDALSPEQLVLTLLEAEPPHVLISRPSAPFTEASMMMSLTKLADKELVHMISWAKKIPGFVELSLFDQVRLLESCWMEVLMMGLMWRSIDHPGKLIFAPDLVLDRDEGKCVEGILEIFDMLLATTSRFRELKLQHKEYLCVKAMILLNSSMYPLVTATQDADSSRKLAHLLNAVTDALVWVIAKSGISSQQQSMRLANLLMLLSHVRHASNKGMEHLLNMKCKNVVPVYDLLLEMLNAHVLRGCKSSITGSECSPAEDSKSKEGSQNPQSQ
# UniProt P10275: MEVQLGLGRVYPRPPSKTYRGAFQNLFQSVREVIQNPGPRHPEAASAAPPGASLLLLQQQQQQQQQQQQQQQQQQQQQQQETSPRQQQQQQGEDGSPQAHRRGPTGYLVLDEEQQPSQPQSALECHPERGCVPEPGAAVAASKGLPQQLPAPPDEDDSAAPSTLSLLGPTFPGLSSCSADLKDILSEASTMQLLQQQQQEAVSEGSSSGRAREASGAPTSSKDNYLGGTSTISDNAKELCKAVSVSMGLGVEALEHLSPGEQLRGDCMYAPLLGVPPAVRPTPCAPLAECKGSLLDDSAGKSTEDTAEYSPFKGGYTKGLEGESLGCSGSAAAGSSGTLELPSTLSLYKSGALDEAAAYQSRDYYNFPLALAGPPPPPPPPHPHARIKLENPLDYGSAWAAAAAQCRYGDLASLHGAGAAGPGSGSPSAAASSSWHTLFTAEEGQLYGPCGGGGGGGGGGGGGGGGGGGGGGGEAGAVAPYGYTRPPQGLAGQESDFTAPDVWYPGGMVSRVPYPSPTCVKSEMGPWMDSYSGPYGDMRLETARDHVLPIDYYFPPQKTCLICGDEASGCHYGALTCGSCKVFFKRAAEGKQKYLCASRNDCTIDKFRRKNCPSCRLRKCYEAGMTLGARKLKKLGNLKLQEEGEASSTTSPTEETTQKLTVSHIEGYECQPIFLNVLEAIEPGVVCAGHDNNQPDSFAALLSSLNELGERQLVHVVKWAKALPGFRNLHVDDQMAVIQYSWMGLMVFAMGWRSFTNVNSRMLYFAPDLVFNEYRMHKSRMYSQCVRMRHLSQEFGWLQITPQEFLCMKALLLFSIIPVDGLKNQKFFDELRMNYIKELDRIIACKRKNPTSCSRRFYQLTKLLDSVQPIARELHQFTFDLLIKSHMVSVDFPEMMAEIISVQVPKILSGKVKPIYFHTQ
# Assays:
# [1] = qHTS assay to identify small molecule agonists of the NFkB signaling pathway (AID 1159509; active = well fitted curve in the direction sought with a large enough effect in the signal ratio in the repeat runs, not every such curve was filed as active; the % refers to the signal ratio); details: NFkB-bla ME-180 cells, beta-lactamase FRET ratio, 5 h
# In short: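 Agonist activity was read as beta-lactamase-driven FRET change (460 and 530 nm emission, 405 nm excitation) following 1.5 hr substrate loading at room temperature. Beforehand, ME-180 NFkB-bla reporter cells were treated with compounds for 5 hr at 37 C.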
# [2] = qHTS assay to identify small molecule antagonists of the retinoic acid receptor (RAR) signaling pathway (AID 1159552; note: nearly all actives have a fitted effect of over 50% in size; note: potency is the fitted concentration of half-maximal effect)
# In short: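 Retinol signaling pathway inhibitors screened in C3RL4 RARE-luciferase reporter cells seeded overnight at 37 C, then compounds added with 1 uM (final) retinol as pathway substrate. After 6 hr at 37 C, luciferase luminescence read after 30 min at room temperature.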
# [3] = target: Estrogen receptor beta (Homo sapiens) (UniProt Q92731); test: qHTS assay to identify small molecule antagonists of the estrogen receptor beta (ER-beta) signaling pathway (AID 1259378; active = well fitted inhibition curve with a large enough effect in the signal ratio in the repeat runs, not every such curve was filed as active; the % refers to the signal ratio; note: potency is the fitted concentration of half-maximal effect)
# In short: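 ER-beta-UAS-bla HEK293T cells in 2% charcoal-stripped FBS medium treated with compound plus 1nM final 17-beta-estradiol for 16 hr at 37C. Beta-lactamase reporter read by FRET substrate fluorescence after 2 hours at room temperature.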
# [4] = target: Androgen receptor (Homo sapiens) (UniProt P10275); test: qHTS assay to identify small molecule agonists of the androgen receptor (AR) signaling pathway using the MDA cell line (AID 743040; note: nearly all actives have a fitted effect of over 20% in size); details: MDA-kb2 AR-luc cells, MMTV luciferase, 16 h, stronger effect = higher value
# [5] = target: Androgen receptor (Homo sapiens) (UniProt P10275); test: qHTS assay to identify small molecule antagonists of the androgen receptor (AR) signaling pathway using the MDA cell line (AID 743042; note: nearly all actives have a fitted effect of over 55% in size)
# [6] = target: Androgen receptor (Homo sapiens) (UniProt P10275); test: qHTS assay to identify small molecule antagonists of the androgen receptor (AR) signaling pathway using the MDA cell line in the presence of 0.5 nM R1881 (AID 1259243); note: nearly all actives have a fitted effect of over 50% in size; note: potency is the fitted concentration of half-maximal effect
# [7] = target: Androgen receptor (Homo sapiens) (UniProt P10275); test: qHTS assay to identify small molecule agonists of the androgen receptor (AR) signaling pathway in the presence of an antagonist (AID 1259381; calls by dose curve; note: nearly all actives have a fitted effect of over 15% in size)
# [8] = target: Androgen receptor (Homo sapiens) (UniProt P10275); test: qHTS assay to identify small molecule antagonists of the androgen receptor (AR) signaling pathway (AID 743035; active = well fitted inhibition curve with a large enough effect in the signal ratio in the repeat runs, not every such curve was filed as active; the % refers to the signal ratio)
# [9] = at 61 µM (top of the series) unless noted
structure (smiles),measurement,setting,value
C=CC[N+]1([C@H]2C[C@H]3[C@@H]4CC[C@H]5C[C@H](OC(C)=O)[C@@H](N6CCCCC6)C[C@]5(C)[C@H]4CC[C@]3(C)[C@H]2OC(=O)CC)CCCCC1,activation,[1]; [9],inactive: -0.195%
same,Potency,[2],inactive
same,Potency,[3],inactive
Nc1nc(-c2ccccc2)cs1,activity change,[4]; at 70.3 µM (top of the series),inactive: 6.03%
same,Potency,[5],inactive
same,activation,[1]; [9],inactive: -0.324%
same,Potency,[2],inactive
same,Potency,[6],inactive
same,Potency,[7],inactive
CCOc1ccc2ccccc2c1C(=O)N[C@@H]1C(=O)N2[C@@H]1SC(C)(C)[C@@H]2C(=O)O,activation,[1]; [9],inactive: -0.987%
same,Potency,[2],inactive
same,Potency,[3],inactive
CN1CCN(Cc2cc(-c3ccc4[nH]c(=O)oc4c3)co2)[C@@H](c2ccc(F)cc2)C1,activation,[1]; [9],inactive: 0.914%
C[N+]1(C)CCCC(OC(=O)C(O)(c2ccccc2)c2ccccc2)C1 (stereo not given),activation,[1]; [9],inactive: 0.0018%
same,Potency,[2],inactive
same,Potency,[3],inactive
C[N+](C)(CCOc1ccccc1)Cc1cccs1,activation,[1]; [9],inactive: -0.37%
C[N+]1(C)[C@@H]2CC(OC(=O)[C@H](CO)c3ccccc3)C[C@H]1[C@@H]1O[C@@H]12 (stereo not given in full),activation,[1]; [9],inactive: 0.142%
same,Potency,[2],inactive
same,Potency,[3],inactive
[O]=[Zr],activation,[1]; [9],inactive: 0.538%
same,Potency,[2],inactive
NC(=O)NC1N=C([O][Al])NC1=O (stereo not given),activation,[1]; [9],inactive: -1.45%
CC[N+](CC)(CC)CCOC(=O)C(C1CCCC1)C1CCCC1,Potency,[8],inactive
same,activity change,[4]; at 70.3 µM (top of the series),inactive: -8.49%
same,activation,[1]; [9],inactive: -0.693%
same,Potency,[2],inactive
same,Potency,[6],active: 26.6 µM
same,Potency,[3],inactive
same,Potency,[7],inactive
C[C@@H]1C[C@H]2[C@@H]3C[C@H](F)C4=CC(=O)C(Cl)=C[C@]4(C)[C@@]3(F)[C@@H](O)C[C@]2(C)[C@@]1(O)C(=O)CO,activation,[1]; [9],inactive: -0.818%
CCCN1C=CN(C)C1,activation,[1]; [9],inactive: -1.25% [at 78.8 µM] and inactive: -0.347% [at 78.8 µM]
O=c1c(O)c(-c2ccc(O)c(O)c2)oc2cc(O)cc(O)c12,activation,[1]; [9],inactive: -0.242% and inactive: -1.02%
same,Potency,[2],inactive
C[N+]1(CC2COC(c3ccccc3)(C3CCCCC3)O2)CCCCC1 (stereo not given),activation,[1]; [9],inactive: -0.131%
NCCCC(N)(C(=O)O)C(F)F (stereo not given),activation,[1]; [9],inactive: -0.281%
same,Potency,[2],inactive
same,Potency,[3],inactive
CCN1C=CN(C)C1C (stereo not given),Potency,[8],inactive
same,activity change,[4]; at 95 µM (top of the series),inactive: 0.481%
same,Potency,[5],inactive
same,activation,[1]; [9],inactive: -0.893% [at 78.8 µM]
same,Potency,[2],inactive
same,Potency,[6],inactive
same,Potency,[3],inactive
same,Potency,[7],inactive
CC(C)[N+](C)(CCOC(=O)C1c2ccccc2Oc2ccccc21)C(C)C,Potency,[8],inactive
same,activity change,[4]; at 70.3 µM (top of the series),inactive: -2% and inactive: -4.72%
same,Potency,[5],inactive
same,activation,[1]; [9],inactive: -0.694% and inactive: -0.123%
same,Potency,[2],inactive
same,Potency,[6],active: 54.5 µM and inactive
same,Potency,[7],inactive
O=C(O)[C@@H]1[C@H]2C[C@H]3c4[nH]c5ccccc5c4CCN3C[C@@H]2CC[C@@H]1O,activation,[1]; [9],inactive: 0.808%
same,Potency,[2],inactive
CO/N=C(\C(=O)N[C@@H]1C(=O)N2C(C(=O)O)=C(CSc3nc(=O)c(O)nn3C)CS[C@H]12)c1csc(N)n1,activation,[1]; [9],inactive: -0.422%
same,Potency,[2],inactive
O=S(=O)(O)c1cccc2c(S(=O)(=O)O)cccc12,activation,[1]; [9],inactive: 1.11%
same,Potency,[2],inactive
same,Potency,[3],inactive
Cc1ccc(C(=O)c2ccc(CC(=O)O)n2C)cc1,activation,[1]; [9],inactive: 0.0663%
same,Potency,[2],inactive
same,Potency,[3],inactive
Cc1ncc(COP(=O)(O)O)c(C=O)c1O,activation,[1]; [9],inactive: -0.212%
same,Potency,[2],inactive
same,Potency,[3],inactive
CC[N+](C)(CC)CCOC(=O)C(O)(c1ccccc1)C1CCCCC1 (stereo not given),activation,[1]; [9],inactive: -0.82%
same,Potency,[2],inactive
same,Potency,[3],inactive
C[N+]1(CC2COC(c3ccccc3)(c3ccccc3)O2)CCCCC1 (stereo not given),activation,[1]; [9],inactive: -0.381% [at 28.5 µM]
same,Potency,[2],inactive
CC[N+](C)(CC)CCOC(=O)C1c2ccccc2Oc2ccccc21,activity change,[4]; at 70.3 µM (top of the series),inactive: -1.45%
same,activation,[1]; [9],inactive: 1.07%
same,Potency,[2],inactive
same,Potency,[6],inactive
same,Potency,[7],inactive
[Ca+2],activation,[1]; [9],inactive: -0.128%
same,Potency,[2],inactive
CCCCCCC[N+](CC)(CC)CCCCc1ccc(Cl)cc1,activation,[1]; [9],inactive: 1.48%
c1cnc2c(c1)ccc1cccnc12,activation,[1]; at 61 µM (top of the series),inactive: -0.578%
same,activation,[1]; at 78.8 µM (top of the series),inactive: 0.0475%
same,Potency,[2],inactive
same,Potency,[3],active: 0.692 µM
CCN1/C(=C/C=C/c2sc3ccccc3[n+]2CC)Sc2ccccc21,activation,[1]; [9],inactive: 2.11% [at 28.5 µM]
same,Potency,[2],active: 5.17 µM
C[C@](N)(Cc1ccc(O)c(O)c1)C(=O)O,activation,[1]; at 61 µM (top of the series),inactive: 0.0555% and inactive: -1.04% and inactive: -0.687%
same,activation,[1]; at 78.8 µM (top of the series),inactive: -0.711%
same,Potency,[2],inactive
CNC(=O)c1cc(Oc2ccc(NC(=O)Nc3ccc(Cl)c(C(F)(F)F)c3)cc2)ccn1,activation,[1]; [9],inactive: 0.153%
CC(C)C[P+](C)(CC(C)C)CC(C)C,activation,[1]; [9],inactive: -0.19% [at 78.8 µM]

# — PubChem BioAssay (Tox21)
